Source: patent publication US20100041920A1, “NEW SALT FORMS OF AN AMINOINDAN DERIVATIVE” (priority 2008, published 2010)

Assay: Accelerated stability studies of rasagiline salts (40° C. and 75% RH; PE and AL bags)
Assay type: physicochemical
Details: for Purity (HPLC) 1st Month: 1 month; for Purity (HPLC) 2nd Month: 2 months
Experimental: Rasagiline salts were submitted to accelerated conditions (40° C. and 75% RH) in two types of bags: polyethylene (PE) and aluminium (AL) bags. The samples were characterized by HPLC, XRD, and visual inspection.

C#CCN[C@@H]1CCc2ccccc21.C#CCN[C@@H]1CCc2ccccc21.O=C(O)C(O)C(O)C(=O)O [Hemitartrate Form I, rasagiline L-hemitartrate]
Purity (HPLC) 1st Month (aluminium (AL) bag): 99.49% | Purity (HPLC) 2nd Month (aluminium (AL) bag): 99.55% | Purity (HPLC) 1st Month (polyethylene (PE) bag): 99.51% | Purity (HPLC) 2nd Month (polyethylene (PE) bag): 99.47%
